The structures appear in SMILES notation. Values joined by “and” are separate entries in the source; they are usually repeats but may differ in a detail not shown here. Equal entries are not always repeated. This is one part of the list. Records with an inconclusive call do not appear. Active and inactive are the calls of the source. No stated cut-off is given here; in the data, active means potentiation above about 80%; inconclusive means between about 30% and that limit; inactive means weaker than that.

Amino acid sequences for entries named in this document (tags omitted).
UniProt Q8NER1, whole entry: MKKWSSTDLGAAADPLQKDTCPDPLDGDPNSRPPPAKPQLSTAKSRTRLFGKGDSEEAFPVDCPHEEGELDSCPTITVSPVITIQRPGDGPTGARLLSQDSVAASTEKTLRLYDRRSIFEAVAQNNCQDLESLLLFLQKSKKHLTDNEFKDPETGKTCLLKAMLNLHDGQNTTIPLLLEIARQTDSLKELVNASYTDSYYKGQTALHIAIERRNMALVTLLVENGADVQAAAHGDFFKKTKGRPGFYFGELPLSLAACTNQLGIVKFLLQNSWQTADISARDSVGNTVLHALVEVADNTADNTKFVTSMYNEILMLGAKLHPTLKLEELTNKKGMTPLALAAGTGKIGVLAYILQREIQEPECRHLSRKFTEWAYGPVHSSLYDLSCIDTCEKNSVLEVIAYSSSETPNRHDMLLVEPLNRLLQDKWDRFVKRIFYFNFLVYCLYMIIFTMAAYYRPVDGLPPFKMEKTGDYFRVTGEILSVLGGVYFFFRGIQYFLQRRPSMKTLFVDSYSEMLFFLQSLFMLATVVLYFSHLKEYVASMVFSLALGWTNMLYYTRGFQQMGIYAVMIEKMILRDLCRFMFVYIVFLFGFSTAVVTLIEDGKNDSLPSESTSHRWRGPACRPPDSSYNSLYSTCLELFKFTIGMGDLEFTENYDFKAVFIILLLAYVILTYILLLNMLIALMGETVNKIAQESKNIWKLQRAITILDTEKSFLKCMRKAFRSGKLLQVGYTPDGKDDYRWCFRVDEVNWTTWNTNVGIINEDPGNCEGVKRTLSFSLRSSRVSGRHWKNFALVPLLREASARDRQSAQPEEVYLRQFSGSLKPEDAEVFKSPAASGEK

Our source for the potentiation values is PubChem BioAssay AID540277 (National Center for Advancing Translational Sciences (NCATS), 2011).

The test addresses Transient receptor potential cation channel subfamily V member 1 (Homo sapiens) (UniProt Q8NER1). Nature of the test: HTS Assay for Compounds that Act as Potentiators of the Vanilloid Receptor 1. Further: 0% is about no effect. The conditions noted are these: TRPV1-expressing cells, Fluo-8 calcium influx, capsaicin EC20 potentiation; at 8.33 µM; stronger effect = higher value. The text has this: The transient receptor potential ion channel, family V, number 1, (TRPV1) is one of the most important molecular transducers of painful stimuli and a potential target for analgesic drug development. Although recent clinical trials with orthosteric antagonists have not produced a successful drug because of a hyperthermia side effect and their tendency to block thermal noxious pain, this ion channel is undeniably well placed in the pain pathway, and the idea of blocking pain signals before they enter the CNS is an excellent concept and of proven efficacy when TRPV1 agonists are used. We propose a new approach involving allosteric modulation to impose an activity-dependent constraint within the context of inflammation and tissue damage that would alter the responsiveness of the channel in a way that an orthosteric vanilloid antagonist cannot achieve. We believe that the allosteric modulator approach has not been explored for this target. The main goal of this proposal is to identify additional, new, potent allosteric modulators of TRPV1 that can be used to investigate TRPV1 function. Our recent report provides evidence of proof of concept, but the compounds are just at the edge of utility in terms of potency. […] The question of whether they can be used as analgesic agents is complex, but if suitable compounds are identified then testing for analgesic properties will be conducted. NIH Chemical Genomics Center [NCGC] NIH Molecular Libraries Probe Centers Network [MLPCN] MLPCN Grant: MH089480-1A1 Assay Submitter (PI): Michael Iadarola, National Institute of Dental and Cranofacial Research
Upon TRPV1 activation in TRPV1 cells, the channel opens and extracellular cations flow through the channel into the cytosol. A calcium binding dye (Fluo-8) becomes fluorescent when bound to calcium. This dye is pre-loaded into cells and is used as a marker for calcium influx. The amount of accumulated calcium is precisely quantified using the FDSS kinetic reader and the calcium dye. For the HTS assay, freshly prepared cells are plated at a density of 2000/well in 3 ul medium in 1536-well plates and cultured overnight at 35.5C. Cells will be loaded with 1 ul of the homogeneous calcium dye (ABD Bioquest) at room temperature for 40 to 90 minutes. Plates will be loaded into the FDSS kinetic reader and a 1 sec / cycle for 10 second baseline signal will be measured. Compound library will then be added with a pintool at 23 nl and measured kinetically for 3 minutes. This portion of the read is considered the agonist portion of the screen. Following the 3 minutes of incubation, an on board pipettor will deliver 1 ul of capsaicin for a final concentration equal to the EC20. Signal will be measured kinetically for an additional 2 minutes. This portion of the read is considered the allosteric enhancer portion of the screen. The FDSS reader has a standard filter set capable of measuring calcium bound Fluo-8 (ex=480 and em=520 nm).
Take `Nc1cc(N)c2nonc2c1[N+](=O)[O-]`: the potentiation was inactive: -8.12%.
The same measure for `O=[N+]([O-])c1cc([N+](=O)[O-])c(Nc2ccccn2)c([N+](=O)[O-])c1`: inactive: 6.74%; for `O=C(NC(Sc1ccncn1)C(Cl)(Cl)Cl)c1ccccc1` (stereo not given): inactive: 14.4%.
Take `Cc1c2non([O-])c-2c(C)[n+](=O)[n+]1[O-]`: the potentiation is inactive: -15.3%.
To `Oc1ccccc1CNc1ccccn1` belongs inactive: -8.27%.
The same measure for `COc1ccccc1OP(C)(=O)Nc1ccc(C)c(C)c1` (stereo not given): inactive: -9.38%; for `Cc1ccc(NP(=O)(Oc2ccccc2F)Oc2ccccc2F)nc1`: inactive: -2.56%.
To `Cc1cc(SC(NC(=O)c2ccc(F)cc2)C(Cl)(Cl)Cl)ncn1` (stereo not given) belongs inactive: -2.98%.
`CCOP(=O)(Nc1ccccc1)OCC`: the potentiation is inactive: 8.55% and inactive: -18.7%.
The same measure for `COc1ccc(OP(C)(=O)Nc2ccccc2Br)cc1` (stereo not given): inactive: 17.7%; for `CC(=O)Nc1ccc([As](=O)(O)O)cc1`: inactive: 3.64%; for `O=C(O)c1ccccc1[As](=O)(O)O`: inactive: 12.2%.
To `O=P(Nc1nc2ccc(Cl)cc2s1)(c1ccccc1)c1ccccc1` belongs inactive: -13.1%; to `Cc1cc(C)cc(OP(C)(=O)Nc2cccc(C(F)(F)F)c2)c1` (stereo not given), inactive: 0.867%.
Consider `CCN(N=Nc1nonc1N)c1nonc1N`, for which the potentiation was inactive: 8.71%.
The same measure for `CP(=O)(Nc1ccc(Cl)cc1Cl)Oc1ccccc1` (stereo not given): inactive: 9.08%.
To `CP(=O)(OCCOc1ccccc1)OCCOc1ccccc1` belongs inactive: 10.5%.
The same measure for `Nc1cccc2ccc([As](=O)(O)O)cc12`: inactive: -4.34%; for `Cc1nc2ccc3ccccc3c2o1.O=[N+]([O-])c1cc([N+](=O)[O-])c(O)c([N+](=O)[O-])c1`: inactive: 0.0997%.
Regarding `O=[N+]([O-])c1cc([N+](=O)[O-])c(CCN2CCOCC2)c([N+](=O)[O-])c1`, the potentiation is inactive: 7.83%.
To `CCOC(=O)c1ccc(NP(C)(=O)Oc2ccc(F)cc2)cc1` (stereo not given) belongs inactive: -3.78%.
The same measure for `COc1ccc(OP(C)(=O)Nc2ccc(SC(F)(F)F)cc2)cc1` (stereo not given): inactive: -6.82%.
Consider `CCNC(=S)/N=C(\N)N[N+](=O)[O-]`, for which the potentiation is inactive: 1.14%.
The same measure for `O=C(NC1CCS(=O)(=O)C1)NP(=S)(Oc1ccccc1)Oc1ccccc1` (stereo not given): inactive: -1.56%; for `Cc1ccc(NP(=O)(Oc2cccc(C)c2)Oc2cccc(C)c2)nc1`: inactive: -29%; for `CCOC(=O)NC(Sc1ccccc1)C(Cl)(Cl)Cl` (stereo not given): inactive: 15.4%.
To `c1ccc(-c2nn[nH]n2)c(-c2nn[nH]n2)c1` belongs inactive: 10.1%; to `CP(=O)(Nc1ccccc1)Oc1ccc(F)cc1` (stereo not given), inactive: -9.84%; to `O=c1c2cc([N+](=O)[O-])ccc2[nH]c2c([N+](=O)[O-])cc([N+](=O)[O-])cc12`, inactive: -18.8%.
Consider `CCCCCOc1ccc(NP(C)(=O)Oc2ccc(Cl)cc2Cl)cc1` (stereo not given), for which the potentiation is inactive: -7.47%.
To `CN(C)C(=O)Oc1noc2ccccc12` belongs inactive: -10.2%.
For the compound `Cc1ccccc1OP(=O)(Nc1ccccn1)Oc1ccccc1C`, the potentiation is inactive: 3.41%.
To `CC(=O)NC(SC(=S)N(CC(C)C)CC(C)C)C(Cl)(Cl)Cl` (stereo not given) belongs inactive: 8.91%.
To `Cc1ccc(OP(=O)(Nc2ccccn2)Oc2ccc(C)cc2)cc1` belongs inactive: -4.44%; to `COC(=O)c1cc2c(s1)N=C(c1ccccc1)N(C)P2(=O)N1CCOCC1` (stereo not given), inactive: 0.687%; to `CCN(CC)CCCOC(=O)C(O)(c1ccccc1)C1CCCCC1` (stereo not given), inactive: 0.385%.
Regarding `CCC(=O)N1C2C3N(C(=O)CC)C1C1N(C(=O)CC)C(C(N1C(=O)CC)N3C(=O)CC)N2C(=O)CC`, the potentiation is inactive: 2.43%.
The same measure for `O=C(OC1CN2CCC1CC2)c1ccccc1` (stereo not given): inactive: 2.5%.
With `CP(=O)(Nc1ccccc1F)Oc1ccccc1` (stereo not given), the potentiation was inactive: 2.38%.
Turning to `CC(C)c1ccc(OP(C)(=O)Nc2ccc(SC(F)(F)F)cc2)cc1` (stereo not given), the potentiation was inactive: 9.03%.
To `CC(C)(C)C(=O)NC(Sc1ccccc1)C(Cl)(Cl)Cl` (stereo not given) belongs inactive: -1.95%.
As to `CCOc1ccc(C2=NCC(CBr)S2)cc1` (stereo not given), the potentiation is inactive: 5.29%.
Turning to `O=P1(Nc2nc3ccc(Cl)cc3s2)COc2ccccc2O1` (stereo not given), the potentiation is inactive: 17.8%.
The same measure for `CC(=O)Nc1ccc(Oc2c([N+](=O)[O-])cc([N+](=O)[O-])cc2[N+](=O)[O-])cc1`: inactive: -26.3%; for `CC(=O)Nc1ccc([As](=O)(O)O)c(O)c1`: inactive: -1.09%; for `CC(=O)c1ccc(N2CC2c2ccncc2)cc1` (stereo not given): inactive: 11.8%.
On to `C[C@H]1OP(=O)(Oc2ccccc2)C[C@@H]2O[C@@H]21` (stereo not given in full), for which the potentiation is inactive: 20.9%.
The same measure for `C[C@@H]1C=CCP(=O)(Oc2ccccc2)O1` (stereo not given in full): inactive: 0.45%.
The same measure for `Cc1ccccc1CN(C)C(=O)COC(=O)C(O)(c1ccccc1)c1ccccc1`: inactive: 18.6%; for `O=C(OCCN1CCN(CCOCc2ccccc2)CC1)C(O)(c1ccccc1)c1ccccc1`: inactive: 3.79%.
